The record followed here is ChEMBL document CHEMBL3526001, “Attenuation of intestinal absorption by major efflux transporters: quantitative tools and strategies using a Caco-2 model” (Drug Metab Dispos, 2011).

One series concerns Intestine. The series is described as follows: Ratio of intestine AUC in po dosed mdr1 knock out mouse to intestine AUC in po dosed wild type mouse. Format: ADME, organism-based. Conditions: in vivo.
In another series the test system is MDCK. The series can be described thus: Efflux ratio of permeability from basolateral to apical over apical to basolateral side of MDCK cells expressing MDR1. Format: ADME, cell-based, Canis lupus familiaris. The note with it: dog.
For the next series, the system named is P-gp. The series is described as follows: in vitro.

As for `O=C(O)c1cn(C2CC2)c2cc(N3CCNCC3)c(F)cc2c1=O` [CIPROFLOXACIN], the “Ratio AUC” value in the series on Intestine is 1.6. Turning to `NS(=O)(=O)c1cc(C(=O)O)c(NCc2ccco2)cc1Cl` [FUROSEMIDE], the Ratio in the series on MDCK worked out at 3.1.

Turning to `CC(=O)O[C@H]1C(=O)[C@@]2(C)[C@H]([C@H](OC(=O)c3ccccc3)[C@]3(O)C[C@H](OC(=O)[C@H](O)[C@@H](NC(=O)c4ccccc4)c4ccccc4)C(C)=C1C3(C)C)[C@]1(OC(C)=O)CO[C@@H]1C[C@@H]2O` [PACLITAXEL], the “Ratio AUC” value with Intestine was determined as 17. Moreover, the efflux ratio at 2 h, 10 µM in the series on P-gp is 1.3.
